Among the data in article PMC6899342, “Design and preliminary application of affinity peptide based on the structure of the porcine circovirus type II Capsid (PCV2 Cap)” (PeerJ, 2019) are kon values, retold here.

The chains behind the UniProt entries cited, without tags or fusion partners.
UniProt O56129, whole entry: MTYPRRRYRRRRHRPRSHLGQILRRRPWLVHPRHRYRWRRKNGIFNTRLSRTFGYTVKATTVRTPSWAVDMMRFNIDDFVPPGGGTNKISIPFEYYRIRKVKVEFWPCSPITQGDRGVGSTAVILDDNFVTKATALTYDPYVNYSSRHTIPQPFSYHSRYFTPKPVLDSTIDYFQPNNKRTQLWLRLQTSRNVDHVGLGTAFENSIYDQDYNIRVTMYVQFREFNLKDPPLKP

The target in this test is T1, PCV2 Cap protein (Porcine circovirus 2, UniProt O56129).
T1 construct: made in house; host or cells: E. coli BL21 (pET28a-Cap)
Description: biochemical. Format: binding, porcine circovirus type II. Particulars: pH 7.4, read-out: ka. The procedure:
The equilibrium binding constant (KD) of peptides was determined using an Open SPR instrument (Nicoya, Canada). First, purified Cap protein was covalently immobilized on a carboxyl Au colloidal nanoparticles chip. […] Then, all peptides were respectively dissolved in PBS at predetermined concentrations and injected to detect the resonance signal changes. In each cycle, 300 µL of peptide solution was injected into the flow cell of the Cap chip for 5 min. Finally, the data were assessed to determine the association constant (ka, 1/Ms), the dissociation constant (kd, 1/s), the equilibrium binding constant (KD, M), and KD = kd/ka via Trace Drawer 1.7 (Nicoya, Canada).
All the steps were performed according to manufacturer’s instructions. First, the activation of carboxyl chip: the chip is activated by the EDC/NHS reagent in the amine coupling kit. […] The last step is to block the chip with blocking buffer. In every step, The 300 μL sample was flowed through the chip for 5 min at a constant flow rate of 20 μL/min.
Dissociation constant Kd represents the ratio of AB (ie, AB) dissociated in unit time to the initial AB before dissociation, which represents the speed of the dissociation reaction.Equilibrium dissociation constant KD =kd/ka, KD unit is M (mol/L)
1:1 binding interaction model represents the binding mode of ligand and target according to 1:1. […]

Where no end group is shown, it is not given here.

Regarding DYWWQSWE [Peptide L11], the kon amounted to 10100 M⁻¹ s⁻¹.
